Tests used:
[1] = system: IL-18; test: IL-18 expression in joint tissue by immunohistochemistry (IHC); settings: FIG. 7
Description: First, a bovine type II collagen (Chondrex Corporation, USA) and a Freund's complete adjuvant (Chondrex Corporation, USA) were mixed at a ratio of 1:1 and emulsified, and then 50 µl of the emulsified collagen solution was injected intradermally into the tail of a 6-week-old DBA/1J mouse to induce primary immunization. At two weeks after the primary immunization, the bovine type II collagen and the Freund's complete adjuvant were mixed at a ratio of 1:1 and emulsified, and then 50 µl of the emulsified collagen solution was injected intradermally into the tail of the mouse again to induce secondary immunization (boosting). […]
Rheumatoid arthritis is one of chronic inflammatory diseases and it has been reported to increase the concentration of inflammatory cytokine such as interleukin-18 (IL-18) even in the joint tissues as well as the blood of a patient with rheumatoid arthritis. […] The expression of IL-18 was measured by using immunohistochemistry (IHC), and to this end, a paraffin ingredient was removed from the paraffin tissue fragment and then rehydrated to create an environment in which the antibodies may be stained. […]

[2] = system: collagen-induced arthritis (CIA) mouse model; test: Arthritis progression index in collagen-induced arthritis (CIA) mouse model
Description: A collagen-induced arthritis (CIA) mouse model was prepared as follows, as an autoimmune disease-based arthritis model with characteristics similar to human rheumatoid arthritis.
First, a bovine type II collagen (Chondrex Corporation, USA) and a Freund's complete adjuvant (Chondrex Corporation, USA) were mixed at a ratio of 1:1 and emulsified, and then 50 µl of the emulsified collagen solution was injected intradermally into the tail of a 6-week-old DBA/1J mouse to induce primary immunization. […]
In order to investigate the development of arthritis progression according to the peptide treatment of the present invention, the deepening degree of arthritis with time was measured by evaluating an arthritis progression index. Two observers who were unaware of the specific experimental conditions evaluated progression of arthritis three times a week. In this case, the arthritis progression index was evaluated by 0 to 4 scores per leg according to an arthritis progression evaluation standard by Rossoliniec and the like in Table 2 below to be represented by a total of 0 to 16 scores (a sum of four legs), and thereafter, two observers calculated an average value of the evaluated results to digitize the severity of arthritis. […]

[3] = system: joint region of collagen-induced arthritis mouse model; test: Histological analysis (H&E staining) of hind leg joint tissue of CIA mouse; settings: FIG. 6
Description: First, a bovine type II collagen (Chondrex Corporation, USA) and a Freund's complete adjuvant (Chondrex Corporation, USA) were mixed at a ratio of 1:1 and emulsified, and then 50 µl of the emulsified collagen solution was injected intradermally into the tail of a 6-week-old DBA/1J mouse to induce primary immunization. At two weeks after the primary immunization, the bovine type II collagen and the Freund's complete adjuvant were mixed at a ratio of 1:1 and emulsified, and then 50 µl of the emulsified collagen solution was injected intradermally into the tail of the mouse again to induce secondary immunization (boosting). After the secondary immunization, the peptide of the present invention (the PSP dimer (1 µmole) or the PSP trimer (1 µmole)) was administered intraperitoneally three times a week from the next day, and as a comparative experimental group, a PSP monomer-treated group and as a control (Vehicle control), a PBS-treated group were used, respectively. The preparation process of the collagen-induced arthritis mouse model and the administration time of the peptide were schematically illustrated in FIG. 1.
In order to confirm a healing effect of the cartilage damage of the joint region according to the peptide treatment of the present invention, the deepening degree of arthritis in Example 2-2 was evaluated and then, a histological analysis was performed. […]

Which results are given for `O=C(N[C@@H](CO)C(=O)N1CCC[C@H]1C(=O)N1CCC[C@H]1C(=O)N[C@@H](CO)C(=O)N1CCC[C@H]1C(=O)O)[C@@H]1CCCN1`?
expression of IL-18 [1]: largely decreased to the normal mouse level; arthritis progression index compared with methotrexate ([2]; methotrexate 1 mg/kg, Tables 6 and 7): approximate arthritis progression index to the group treated with methotrexate; swelling and redness around the ankle joint ([2]; visual check, compared with the control, FIG. 5): remarkably mitigated; immune cell infiltration, pannus formation, cartilage destruction, and bone erosion of the joint region [3]: greatly reduced
